Results: patent publication US9453842B2, “Inhibition of peroxidase enzymatic activity” (Roche Molecular Systems, Inc., priority 2006, dated 2016)

Molecular target: T1, HRP (Armoracia rusticana, UniProt P00433)
T1 sequence (P00433 31-338): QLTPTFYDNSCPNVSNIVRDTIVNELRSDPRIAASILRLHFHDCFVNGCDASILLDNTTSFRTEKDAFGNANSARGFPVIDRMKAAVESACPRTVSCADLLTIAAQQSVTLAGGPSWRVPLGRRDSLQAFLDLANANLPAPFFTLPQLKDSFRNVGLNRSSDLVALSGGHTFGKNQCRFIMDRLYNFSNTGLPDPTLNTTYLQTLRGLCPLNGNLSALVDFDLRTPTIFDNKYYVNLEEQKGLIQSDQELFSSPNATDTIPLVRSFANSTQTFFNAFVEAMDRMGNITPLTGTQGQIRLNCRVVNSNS
Assay: Inhibition of 1 mU of HRP activity using heavy metal salts and other compounds as stop reagents (ABTS, 96-well plate)

In the case of `O=S(=O)([O-])[O-].[Cu+2]` [(vi), Copper(II) sulfate], the “Absorbance at 405 nm” value is reported as 1.765 and 1.842 and 1.077 and 1.646 and 1.669 and 1.767 and 1.831.

“And” between values parts separate entries of the source, which are not always exact repeats. Equal entries are not always repeated.
